The assay relates to HIF1alpha protein. Briefly: HIF1alpha protein levels by ELISA in SH-SY5Y cells. The class given is cell-based, human. To be noted: negative control, 1 mg/mL or 4 mg/mL. How it is done:
Human neuroblastoma SH-SY5Y cell line cells, cultured in serum free media were treated with plasma derived ApoTf and HoloTf (in both cases at a concentration of 1 mg/mL and 4 mg/mL) for 6 hours under normoxia (21% oxygen) and hypoxia conditions (1% oxygen). As controls, untreated cells or cells treated with human serum albumin (HSA) at a concentration of 1 mg/mL or 4 mg/mL, are used. After 6 hrs intracellular proteins were harvested and tested for HIF1alpha protein levels by ELISA.
Experiment performed in example 1 was repeated but performing treatments for 24 hours and only under normoxic conditions. After 24 hrs intracellular proteins were harvested and tested for HIF1 alpha protein levels by ELISA.
After 6 hrs, intracellular proteins were harvested and tested for HIF1 alpha protein levels by ELISA. […] As also can be seen in said figure, all mixtures of ApoTf and HoloTf upregulate HIF1alpha protein in SH-SY5Y neuronal cells.
Transferrin may act synergistically with other HIF activating small molecules, such as other iron chelators or enzyme inhibitors. This could allow lower levels of these small molecules to be administered, eliciting fewer side effects but retaining high therapeutic levels. […]

“human serum albumin: human serum albumin used as negative control protein [reference compound]”: the HIF1-α levels entry was “no effect”.
